In patent publication US20060063766A1, “Use of aryl- and heteroaryl-substituted tetrahydroisoquinolines to block reuptake of norepinephrine, dopamine, and serotonin” (priority 2004, published 2006) one finds Ki data, which are given here for three molecules.

By UniProt entry, the sequences of proteins in these tests, tags left out.
UniProt P23975, whole entry, looked up: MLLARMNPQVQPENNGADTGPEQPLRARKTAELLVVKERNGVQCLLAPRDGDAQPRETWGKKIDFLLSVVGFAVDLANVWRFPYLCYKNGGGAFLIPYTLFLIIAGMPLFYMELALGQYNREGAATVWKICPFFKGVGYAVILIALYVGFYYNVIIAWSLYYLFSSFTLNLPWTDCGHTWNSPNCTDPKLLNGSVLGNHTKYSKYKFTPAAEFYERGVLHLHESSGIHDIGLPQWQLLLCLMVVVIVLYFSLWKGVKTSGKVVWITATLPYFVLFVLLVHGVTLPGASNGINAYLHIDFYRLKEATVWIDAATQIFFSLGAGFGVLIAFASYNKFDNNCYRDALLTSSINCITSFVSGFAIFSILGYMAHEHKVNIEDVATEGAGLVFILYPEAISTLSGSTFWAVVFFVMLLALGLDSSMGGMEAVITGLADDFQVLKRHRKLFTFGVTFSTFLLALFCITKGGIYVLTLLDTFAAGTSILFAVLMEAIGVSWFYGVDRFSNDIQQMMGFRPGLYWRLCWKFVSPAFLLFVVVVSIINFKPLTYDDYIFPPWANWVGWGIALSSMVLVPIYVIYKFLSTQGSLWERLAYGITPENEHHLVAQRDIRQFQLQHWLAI

The term Ki denotes a measure of affinity in units of concentration, obtained from inhibition or displacement.

The target in this test is NET (Homo sapiens, UniProt P23975). Description: Primary binding assay, NET binding ([3H] Nisoxetine).
[1] abbreviates: read-out: Ki, nM NET, Table 2, inhibition of radioligand binding at human transporter.

SMILES strings stand for the structures. Where a name gives a salt, the structure may show the parent alone. Read-outs that look alike come from different tables or passages of the source.

Turning to `Cc1csc(C2CN(C)Cc3ccccc32)c1` (racemic) [4-methyl-thiophen-2-yl, reference compound], the Ki (read-out: NET Ki, Table 1, human transporter in HEK293E cells) came to 488 nM.

For `CN1Cc2cc(-c3cccnn3)ccc2C(c2ccc3sccc3c2)C1` (single isomer, unassigned), the Ki under setting [1] was 1.4 nM.

As for `CN1Cc2cc(CN3CCOCC3)ccc2C(c2cc3ccccc3s2)C1` (single isomer, unassigned) (as salt: maleate), the Ki under setting [1] was determined as 12.6 nM.
